Values joined by “and” are separate entries in the source; they are usually repeats but may differ in a detail not shown here. Identical values can stand only once.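 These data come from cells grown in 96-well plates and exposed to compound for 48 hours at five concentrations. At the GI50, growth is halved. At the TGI there is no net growth.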
Tests used:
Experiment in all cases: NCI tumour cell line growth inhibition, 48 h
SNB-78 CNS = system: SNB-78 CNS
OVCAR-8 ovarian = system: OVCAR-8 ovarian
LOX IMVI melanoma = system: LOX IMVI melanoma
SF-295 CNS = system: SF-295 CNS
OVCAR-3 ovarian = system: OVCAR-3 ovarian
K-562 leukemia = system: K-562 leukemia
HOP-62 NSCLC = system: HOP-62 NSCLC
DMS 273 small cell lung = system: DMS 273 small cell lung
A498 renal = system: A498 renal
A549 NSCLC = system: A549 NSCLC
MOLT-4 leukemia = system: MOLT-4 leukemia
NCI-H23 lung = system: NCI-H23 lung
HCT-15 colon = system: HCT-15 colon
IGROV1 ovarian = system: IGROV1 ovarian
UO-31 renal = system: UO-31 renal
UACC-62 melanoma = system: UACC-62 melanoma
SK-MEL-5 melanoma = system: SK-MEL-5 melanoma
HT29 colon = system: HT29 colon
HCC-2998 colon = system: HCC-2998 colon
HL-60(TB) leukemia = system: HL-60(TB) leukemia
SK-OV-3 ovarian = system: SK-OV-3 ovarian
NCI/ADR-RES ovarian = system: NCI/ADR-RES ovarian
M19-MEL melanoma = system: M19-MEL melanoma
HOP-18 NSCLC = system: HOP-18 NSCLC
KM12 colon = system: KM12 colon
UACC-257 melanoma = system: UACC-257 melanoma
NCI-H226 lung = system: NCI-H226 lung
RXF 393 renal = system: RXF 393 renal
P388/ADR leukemia = system: P388/ADR leukemia
SF-268 CNS = system: SF-268 CNS
OVCAR-4 ovarian = system: OVCAR-4 ovarian
HOP-92 NSCLC = system: HOP-92 NSCLC
NCI-H522 lung = system: NCI-H522 lung
CAKI-1 renal = system: CAKI-1 renal
U251 CNS = system: U251 CNS
KM20L2 colon = system: KM20L2 colon
DMS 114 small cell lung = system: DMS 114 small cell lung
SK-MEL-2 melanoma = system: SK-MEL-2 melanoma
HCT-116 colon = system: HCT-116 colon
SN12C renal = system: SN12C renal
MALME-3M melanoma = system: MALME-3M melanoma
SNB-19 CNS = system: SNB-19 CNS
NCI-H322M lung = system: NCI-H322M lung
XF 498 CNS = system: XF 498 CNS
EKVX NSCLC = system: EKVX NSCLC
OVCAR-5 ovarian = system: OVCAR-5 ovarian
SN12K1 renal = system: SN12K1 renal
MCF7 breast = system: MCF7 breast
SK-MEL-28 melanoma = system: SK-MEL-28 melanoma
CCRF-CEM leukemia = system: CCRF-CEM leukemia
NCI-H460 lung = system: NCI-H460 lung
P388 leukemia = system: P388 leukemia
SF-539 CNS = system: SF-539 CNS
COLO 205 colon = system: COLO 205 colon
RPMI-8226 leukemia = system: RPMI-8226 leukemia
SNB-75 CNS = system: SNB-75 CNS
DLD-1 colon = system: DLD-1 colon
SW-620 colon = system: SW-620 colon

## COc1ccc(O)c2c(=O)c3c(OC)cc4c(c3oc12)[C@@H]1C=CO[C@@H]1O4
SNB-78 CNS
  GI50: 26.4 µM
  TGI: 92.7 µM
OVCAR-8 ovarian
  GI50: 3.58 µM and 3.72 µM
  TGI: 111 µM
LOX IMVI melanoma
  GI50: 16.9 µM and 8.5 µM
  TGI: > 125 µM
SF-295 CNS
  GI50: 5.72 µM and 9.92 µM
  TGI: 40.1 µM and 34.5 µM
OVCAR-3 ovarian
  GI50: 4.7 µM and 2.48 µM
  TGI: 58.9 µM and 20.8 µM
K-562 leukemia
  GI50: 45.1 µM and > 125 µM
  TGI: > 125 µM
HOP-62 NSCLC
  GI50: 3.47 µM and 0.396 µM
  TGI: 15.7 µM and 14.9 µM
DMS 273 small cell lung
  GI50: 0.0235 µM
  TGI: 1.46 µM
A498 renal
  GI50: 4.81 µM and 11.4 µM
  TGI: 41.3 µM and 71 µM
A549 NSCLC
  GI50: 4.79 µM and 2.71 µM
  TGI: > 125 µM
MOLT-4 leukemia
  GI50: 43.9 µM and 98.1 µM
  TGI: > 125 µM
NCI-H23 lung
  GI50: 0.713 µM and 0.106 µM
  TGI: 35.9 µM and 4.98 µM
HCT-15 colon
  TGI: 119 µM
IGROV1 ovarian
  GI50: 1.09 µM and 1 µM
  TGI: 13.7 µM and 26.6 µM
UO-31 renal
  GI50: 4.3 µM and 4.99 µM
  TGI: 51.7 µM
UACC-62 melanoma
  GI50: 1.23 µM and 0.412 µM
  TGI: 30.8 µM and 8.61 µM
SK-MEL-5 melanoma
  GI50: 5.42 µM and 3.78 µM
  TGI: 61.4 µM and 41.6 µM
HT29 colon
  GI50: 6.86 µM and 35.1 µM
  TGI: 89.4 µM
HCC-2998 colon
  TGI: 1.5 µM and 9.41 µM
HL-60(TB) leukemia
  GI50: 49.7 µM and 32.5 µM
  TGI: > 125 µM
SK-OV-3 ovarian
  GI50: 3.12 µM and 4.62 µM
  TGI: 66.9 µM and 30.3 µM
NCI/ADR-RES ovarian
  GI50: 5.89 µM and 4.7 µM
  TGI: > 125 µM
M19-MEL melanoma
  GI50: 4.34 µM
  TGI: 72.8 µM
HOP-18 NSCLC
  GI50: 3.87 µM
  TGI: 37.4 µM
KM12 colon
  GI50: 0.886 µM and 0.316 µM
  TGI: 17.9 µM and 31.8 µM
UACC-257 melanoma
  TGI: > 125 µM
NCI-H226 lung
  GI50: 12.8 µM and 5.38 µM
  TGI: 31.4 µM
RXF 393 renal
  GI50: 5.17 µM and 10.6 µM
  TGI: 19.7 µM and 30.4 µM
P388/ADR leukemia
  GI50: 2.61 µM
  TGI: > 125 µM
SF-268 CNS
  GI50: 4.59 µM and 4.66 µM
  TGI: 57.1 µM and 37.4 µM
OVCAR-4 ovarian
  GI50: 4 µM and 4.72 µM
  TGI: > 125 µM
HOP-92 NSCLC
  GI50: 8.53 µM and 2.59 µM
  TGI: 28.6 µM and 15 µM
NCI-H522 lung
  GI50: 7.49 µM and 11.6 µM
  TGI: 65.4 µM and 99.2 µM
CAKI-1 renal
  GI50: 1.66 µM and 0.86 µM
  TGI: 15.2 µM and 18.3 µM
U251 CNS
  GI50: 6.89 µM and 8.54 µM
  TGI: 53.9 µM and 25.3 µM
KM20L2 colon
  GI50: > 125 µM
  TGI: > 125 µM
DMS 114 small cell lung
  GI50: 9.06 µM
  TGI: 61.5 µM
SK-MEL-2 melanoma
  GI50: 2.09 µM and 1.38 µM
  TGI: 8.69 µM and 7.22 µM
HCT-116 colon
  GI50: 5.71 µM and 4.08 µM
  TGI: > 125 µM
SN12C renal
  GI50: 6.9 µM and 9.51 µM
  TGI: 77.9 µM
MALME-3M melanoma
  GI50: 3.56 µM and 23.8 µM
  TGI: 29.8 µM and 113 µM
SNB-19 CNS
  GI50: 11.3 µM and 17.7 µM
  TGI: 73.9 µM and 90.3 µM
NCI-H322M lung
  GI50: 3.31 µM and 2.7 µM
  TGI: 72.2 µM and > 125 µM
XF 498 CNS
  GI50: 3.04 µM
  TGI: 17.6 µM
EKVX NSCLC
  GI50: 0.517 µM and 0.185 µM
OVCAR-5 ovarian
  GI50: 4.81 µM and 1.59 µM
  TGI: 52.3 µM and > 125 µM
SN12K1 renal
  GI50: 3.79 µM
  TGI: 19.7 µM
MCF7 breast
  GI50: 0.0221 µM and 0.0566 µM
  TGI: 1.25 µM and 5.77 µM
SK-MEL-28 melanoma
  GI50: 17.8 µM and 66.7 µM
  TGI: 63.2 µM and > 125 µM
CCRF-CEM leukemia
  GI50: 33.9 µM and 89.7 µM
  TGI: > 125 µM
NCI-H460 lung
  GI50: 0.367 µM and 0.204 µM
  TGI: 71.4 µM and 41.4 µM
P388 leukemia
  GI50: 0.0658 µM
  TGI: 30.2 µM
SF-539 CNS
  GI50: 6.23 µM and 9.9 µM
  TGI: 32.2 µM and 31.7 µM
COLO 205 colon
  GI50: 1.71 µM and 1.79 µM
  TGI: 38.9 µM and > 125 µM
RPMI-8226 leukemia
  TGI: 60.5 µM and > 125 µM
SNB-75 CNS
  GI50: 4 µM and 3.83 µM
  TGI: 33.6 µM and 14.1 µM
DLD-1 colon
  GI50: 0.14 µM
  TGI: 4.94 µM
SW-620 colon
  GI50: 4.87 µM and 6.51 µM
  TGI: 49.8 µM

— PubChem BioAssay (NCI)
